Measured values from patent US12139488B2, “Pyrido[3,2-d]pyrimidine compounds uses thereof for treating a proliferative disease” (Universite de Montreal, priority 2021, dated 2024).

Assays:
[1] = system: A375 cells (BRAF V600E); assay: Proliferation inhibition (CellTiter-Glo), A375; conditions: read-out: A375 Prolif. EC50; A375, 3 days
Protocol: (§1) All cancer cell lines (A375, A101D, A2058, RKO, HT29 SK-MEL 30, IPC298, HepG2, HCT-116, Lovo, SWV620, SW480, NCI-H358, NCI-H2122, Calu-6, NCIH2087, NCIH1755, NCIH1666 and Mewo) were obtained from ATCC and cultured in RPMI-1640 medium (Gibco) supplemented with 5% heat inactivated fetal bovine serum (FBS, Wisent) at 37° C. under 5% CO2. Cells were maintained in T175 flasks (Greiner). They were passaged by removing the culture medium, washing once in 10 mL of room temperature Phosphate Buffered Saline (PBS; Wisent) and incubating at 37° C. with 2 mL of 0.05% Trypsin (Thermo-Fisher). Trypsin was then inactivated by adding complete growth medium and the cells were then replated in a T175 culture dish at the appropriate dilution. All cell lines were routinely tested for mycoplasma contamination. Tissue type and mutational status of each cell line can be found in Table B.
(§2) CellTiter-Glo® viability analysis was conducted on cells plated in 100 μL of complete RPMI-1640 growth medium in 96-well flat-bottomed white opaque plates (Greiner or Croning) at a density indicated in Table E (for each CCL, number of cells plated per well of a 96-well plate to perform the CellTiter-Glo® cell viability assay). The cell density in cells/cm^2 would correspond to cell number divided by the area of one well of a 96-well plate (0.32 cm^2). Cells were maintained overnight at 37° C. under 5% CO2 before treatment with compounds' dilution series for 3 days.
(§3) In a dilution series 100 μL/well of test substance dilution prepared in complete RPMI-1640 growth media was added to the cells plated initially in 100 μL of growth media. The dilution series is selected so that ten concentrations cover a range from 10 μM to 0.33 nM. If necessary (as in the case of A375 cells, which were more sensitive to the compounds) the initial concentration of 10 μM is lowered to 1 μM and further dilution is carried out accordingly. The final concentration of DMSO in the assay is set at is 0.5%.
(§4) After 3 days of incubation, the growth media were removed by aspiration and 60 μL of diluted CellTiter-Glo® reagent (10 μL CellTiter-Glo® reagent+50 μL of PBS) was added to each well. Cells were allowed to lyse and to equilibrate in CellTiter-Glo® reagent by 5 min incubation on a plate shaker followed by 10 min incubation at room temperature. Luminescence signals were then acquired on a Synergy Neo2 plate reader (Biotek).
(§5) The effect of each compound dilution on the proliferation of cancer cell lines was expressed in % inhibition and calculated as follows. An internal 100% inhibition control (1 μM of trametinib; cat #HY-10999; MedChem Express; CAS #871700-17-3) was included in each plate and used as a measure of CellTiter-Glo® signal background. The value obtained for trametinib was subtracted from each data point. The average of DMSO (vehicle) controls (set as 0% inhibition) was established and used to calculate % inhibition: % inhibition=100*(1−((CellTiter-Glo® signalcompound)/(CellTiter-Glo® signalDMSO)))
(§6) The ability of each compound to inhibit proliferation was expressed as a EC50 value obtained by plotting the effect values for each data point of a dilution series and fitting the obtained curves using a log(agonist) versus response-variable slope (four parameters) function using GraphPadPrism (V7.0) or Dotmatics Screening Ultra platform.

[2] = system: HepG2 cells (NRAS-Q61L); assay: Proliferation inhibition (CellTiter-Glo), HepG2; conditions: read-out: HepG2 Prolif. EC50; HepG2, 3 days
Protocol: as §1, §2, §3, §4, §5, §6

[3] = system: IPC298 cells (NRAS-Q61L); assay: Proliferation inhibition (CellTiter-Glo), IPC298; conditions: read-out: IPC298 Prolif. EC50; IPC298, 3 days
Protocol: as §1, §2, §3, §4, §5, §6

[4] = system: A2058 cells (BRAF V600E); assay: Proliferation inhibition (CellTiter-Glo), A2058; conditions: read-out: A2058 Prolif. EC50; A2058, 3 days
Protocol: as §1, §2, §3, §4, §5, §6

[5] = system: pERK in SK-MEL30 cells (NRAS-Q61K); assay: Phospho-ERK inhibition (AlphaLISA), SK-MEL30; conditions: for SK-MEL30 pERK % Ymin: SK-MEL30, value in parentheses; for IC50: read-out: SK-MEL30 pERK IC50, SK-MEL30
Protocol: as §1
(§7) AlphaLISA® SureFire® Ultra™ p-ERK 1/2 (Thr202/Tyr204) analysis was conducted on cells plated in 100 μL of complete RPMI-1640 growth medium in 96-well flat-bottomed transparent dishes (Costar) at a density indicated in Table C. Cells were maintained overnight at 37° C. under 5% CO2 before treatment with compounds' dilution series for one hour. The cell density in cells/cm^2 corresponds to cell number divided by the area of one well of a 96-well plate ([…]).
(§8) In a dilution series 100 μL/well of test substance dilution prepared in complete RPMI-1640 growth media was added to the cells. The dilution series is selected so that ten concentrations cover a range from 10 μM to 0.33 nM. If necessary the initial concentration of 10 μM is increased to 100 μM or lowered to 1 μM (as in the case of A375 and H1666 cells, which are generally more sensitive to the compounds) and further dilution is carried out accordingly. The final concentration of DMSO in the assay is set at 0.5%.
(§9) After treatment, media was removed and cells were lysed in 50 μL of 1× AlphaScreen Ultra Lysis Buffer (Perkin Elmer). The AlphaLISA® SureFire® Ultra™ p-ERK 1/2 (Thr202/Tyr2O4) (PerkinElmer) reactions were performed with 5 μL of cell lysate according to the manufacturer's specifications in 384-well proxyplates (Perkin Elmer) followed by overnight incubation of the reactions at room temperature in a humidified chamber. After completion of the reactions, the signals were recorded on an EnVision plate reader (Perkin Elmer) using built in AlphaLISA® settings.
(§10) The effect of each compound dilution on the pERK signal was expressed in % inhibition and calculated as follows. An internal 100% inhibition control ([…] trametinib, cat #HY-10999; MedChem Express; CAS #871700-17-3) was included in each plate and used as a measure of pERK background. First, the value obtained for trametinib was subtracted from each data point. The average of DMSO (vehicle) controls (set as 0% inhibition) was established and used to calculate % inhibition: % inhibition=100*(1-((pERK signalcompound)/(pERK signalDMSO)))
(§11) The ability of each compound to inhibit pERK signal was expressed as an IC50 value obtained by plotting the inhibition values for each data point of a dilution series and fitting the obtained curves using a log(agonist) versus response-variable slope (four parameters) function using GraphPadPrism (V7.0) or Dotmatics Screening Ultra platform.
(§12) When present, paradoxical pERK induction is inferred from the negative % inhibition values observed in the pERK IC50 curves of a compound.

[6] = system: pERK in NCI-H2122 cells (KRAS-G12C); assay: Phospho-ERK inhibition (AlphaLISA), NCI-H2122; conditions: for NCI-H2122 pERK % Ymin: NCI-H2122, value in parentheses; for IC50: read-out: NCI-H2122 pERK IC50, NCI-H2122
Protocol: as §1, §7, §8, §9, §10, §11, §12

Row | SMILES | EC50 [1] [nM] | EC50 [2] [nM] | EC50 [3] [nM] | EC50 [4] [nM] | SK-MEL30 pERK % Ymin [5] [%] | IC50 [5] [nM] | NCI-H2122 pERK % Ymin [6] [%] | IC50 [6] [nM]
1 | O=S(=O)(Nc1ccc(F)c(Nc2ncnc3ccc(-n4cnc5c(N6CCC(O)(C(F)(F)F)CC6)cccc54)nc23)c1F)c1cccc(Cl)c1Cl | < 30 | < 30 | < 30 | < 30 | 6 | < 30 | 21 | 30 to 300
2 | COCCOc1cccc2c1nnn2-c1ccc2ncnc(Nc3c(F)ccc(NS(=O)(=O)c4cccc(Cl)c4Cl)c3F)c2n1 | < 30 | < 30 | < 30 | < 30 | 1 | < 30 | 2 | 30 to 300
3 | CS(=O)(=O)C1CCN(c2cccc3c2nnn3-c2ccc3ncnc(Nc4c(F)ccc(NS(=O)(=O)c5cccc(Cl)c5Cl)c4F)c3n2)CC1 | < 30 | < 30 | < 30 | < 30 | 5 | < 30 | 24 | 30 to 300
4 | O=S(=O)(CCCN1CCOCC1)c1cn(-c2ccc3ncnc(Nc4c(F)ccc(NS(=O)(=O)c5cccc(Cl)c5Cl)c4F)c3n2)c2ccccc12 | < 30 | < 30 | < 30 | < 30 | −9 | < 30 | −3 | 30 to 300
5 | COc1ccc(S(=O)(=O)Nc2ccc(F)c(Nc3ncnc4ccc(-n5cc(S(=O)(=O)N(C)CCN(C)C)c6ccccc65)nc34)c2F)c(C)c1F | < 30 | < 30 | < 30 | < 30 | 3 | < 30 | 20 | 30 to 300
6 | CCC1(O)CCN(c2cccc3c2ncn3-c2ccc3ncnc(Nc4c(F)ccc(NS(=O)(=O)c5cccc(Cl)c5Cl)c4F)c3n2)CC1 | < 30 | < 30 | < 30 | < 30 | 11 | < 30 | 10 | 30 to 300
7 | CN(CCN1CCOCC1)S(=O)(=O)c1cn(-c2ccc3ncnc(Nc4c(F)ccc(NS(=O)(=O)c5cccc(Cl)c5Cl)c4F)c3n2)c2ccccc12 | < 30 | < 30 | < 30 | < 30 | −3 | < 30 | 11 | 30 to 300
8 | Cc1c(F)cccc1S(=O)(=O)Nc1ccc(F)c(Nc2ncnc3ccc(-n4cnc5c(-c6cccnc6)cccc54)nc23)c1F | < 30 | < 30 | < 30 | < 30 | 9 | 30 to 300 | 3 | 30 to 300
9 | Cc1c(Cl)cccc1S(=O)(=O)Nc1ccc(F)c(Nc2ncnc3ccc(-n4cnc5c(N)cccc54)nc23)c1F | < 30 | < 30 | < 30 | < 30 | 13 | < 30 | 9 | 30 to 300
10 | O=S(=O)(Nc1ccc(F)c(Nc2ncnc3ccc(-n4nnc5ccccc54)nc23)c1F)c1cccc(Cl)c1Cl | < 30 | < 30 | < 30 | < 30 | 0 | < 30 | −9 | 30 to 300
11 | Cc1c(Cl)cccc1S(=O)(=O)Nc1ccc(F)c(Nc2ncnc3ccc(-n4cc(C(=O)N5CCN(C)CC5)c5ccccc54)nc23)c1F | < 30 | < 30 | < 30 | < 30 | 8 | < 30 | 5 | 30 to 300
12 | Cc1c(F)cccc1S(=O)(=O)Nc1ccc(F)c(Nc2ncnc3ccc(-n4nc(C(=O)N(C)Cc5cccnc5)c5ccccc54)nc23)c1F | < 30 | < 30 | < 30 | < 30 | – | – | – | –
